From BindingDB's records for US10793528

By UniProt entry, the sequences of proteins in these tests, tags left out. Where a name states a change or a piece, a line headed by the entry shows the natural chain unless it says otherwise.
UniProt P41146: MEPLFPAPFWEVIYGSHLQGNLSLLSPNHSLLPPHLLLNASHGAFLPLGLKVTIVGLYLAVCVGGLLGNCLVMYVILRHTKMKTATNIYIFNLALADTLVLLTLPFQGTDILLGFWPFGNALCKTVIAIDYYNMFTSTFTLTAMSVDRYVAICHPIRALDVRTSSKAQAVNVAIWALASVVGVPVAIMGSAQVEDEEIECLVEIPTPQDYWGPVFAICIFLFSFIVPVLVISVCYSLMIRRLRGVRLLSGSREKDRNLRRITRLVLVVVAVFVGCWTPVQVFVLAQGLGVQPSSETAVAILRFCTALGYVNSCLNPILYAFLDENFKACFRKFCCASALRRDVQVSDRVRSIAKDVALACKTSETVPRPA
UniProt P35372, whole entry, looked up: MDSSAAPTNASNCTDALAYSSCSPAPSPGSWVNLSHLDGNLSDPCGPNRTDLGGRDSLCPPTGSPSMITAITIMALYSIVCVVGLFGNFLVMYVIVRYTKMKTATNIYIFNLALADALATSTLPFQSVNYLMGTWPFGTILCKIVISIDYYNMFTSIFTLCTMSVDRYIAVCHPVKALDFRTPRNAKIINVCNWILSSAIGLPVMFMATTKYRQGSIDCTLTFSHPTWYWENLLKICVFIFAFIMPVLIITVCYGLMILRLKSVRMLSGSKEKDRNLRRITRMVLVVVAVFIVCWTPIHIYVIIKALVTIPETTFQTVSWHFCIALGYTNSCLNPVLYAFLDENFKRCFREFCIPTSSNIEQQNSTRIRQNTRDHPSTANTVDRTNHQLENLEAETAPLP

Assays:
Nociceptin receptor = Nociceptin receptor (Homo sapiens, UniProt P41146); test: Receptor Binding Assay
Description: NOP:The hNOP receptor binding assay was performed as homogeneous SPA-assay (scintillation proximity assay) using the assay buffer 50 mM TRIS-HCl. 10 mM MgCl2. 1 mM EDTA (pH 7.4). The final assay volume (250 μl/well) included 0.5 nM of [leucyl-3H]nociceptin as ligand (PerkinElmer Life Sciences. Inc. Boston. Mass. USA). and either test compound in

Mu-type opioid receptor = Mu-type opioid receptor (Homo sapiens, UniProt P35372); test: Receptor Binding Assay
Description: MOP: The hMOP receptor binding assay was performed as homogeneous SPA-assay (scintillation proximity assay) using the assay buffer 50 mM TRIS-HCl (pH 7.4) supplemented with 0.052 mg/ml bovine serum albumin (Sigma-Aldrich Co. St. Louis. Mo.). The final assay volume (250 μl/well) included 1 nM of [N-allyl-2.3-3H]naloxone as ligand (PerkinElmer Lif

| SMILES | Ki (Nociceptin receptor) | Ki (Mu-type opioid receptor) |
| --- | --- | --- |
| CN(C)[C@]1(c2ccccc2)CC[C@]2(CC1)CN(CC(C)(C)C(N)=O)C(=O)N2CC1(C#N)CCC1 | 0.5 nM | – |
| CN(C)[C@]1(c2ccccc2)CC[C@]2(CC1)CN(CC(C)(C)C(N)=O)C(=O)N2CC1CCC1 | 1 nM | – |
| COc1ccc(NC(=O)CCN2C[C@]3(CC[C@](c4ccccc4)(N(C)C)CC3)N(CC3CCC3)C2=O)cn1 | 1.1 nM | 10 nM |
| COc1ccc(NC(=O)CCN2C[C@]3(CC[C@](c4ccccc4)(N(C)C)CC3)N(CC3CCC3)C2=O)nn1 | 1.9 nM | – |
| CN(C)[C@]1(c2ccccc2)CC[C@]2(CC1)CN(CC(C)(C)C(=O)NCC(N)=O)C(=O)N2CC1CCC1 | 7.4 nM | – |
| CN(C)[C@]1(c2ccccc2)CC[C@]2(CC1)CN(CCC(=O)N1CCn3ncnc3C1)C(=O)N2CC1CCC1 | 3 nM | – |
| CN(C)[C@]1(c2ccccc2)CC[C@]2(CC1)CN(CCC(=O)Nc1nccc(O)n1)C(=O)N2CC1(O)CCC1 | 9.4 nM | – |
| CN(C)[C@]1(c2ccccc2)CC[C@]2(CC1)CN(CCC(=O)Nc1cnc(C#N)nc1)C(=O)N2CC1(O)CCC1 | 3.1 nM | – |
| CNC(=O)CCN1C[C@]2(CC[C@](c3ccccc3)(N(C)CC(C)C)CC2)N(CC2CCC2)C1=O | – | 4150 nM |
| CN(C)[C@]1(c2ccccc2)CC[C@]2(CC1)CN(CCC(=O)N1CCCC(O)C1)C(=O)N2CC1CCC1 (some centres not stated) | 2.6 nM | – |
| CNC(=O)CCN1C[C@]2(CC[C@](c3ccccc3)(N(C)C)CC2)N(CC2CCC2)C1=O | 1.5 nM | 11.3 nM |
| CN(C)[C@]1(c2ccccc2)CC[C@]2(CC1)CN(CCC(=O)NCc1ncco1)C(=O)N2CC1CCC1 | 3.6 nM | – |
| CN(C)[C@]1(c2ccccc2)CC[C@]2(CC1)CN(CCC(=O)Nc1cccnn1)C(=O)N2CC1(O)CCC1 | 4 nM | – |
| CN(C)[C@]1(c2ccccc2)CC[C@]2(CC1)CN(CCC(=O)Nc1cncnc1)C(=O)N2CC1(O)CCC1 | 3.6 nM | – |
| COc1ccc(NC(=O)CCN2C[C@]3(CC[C@](c4ccccc4)(N(C)C)CC3)N(CC3CCC3)C2=O)nc1 | 1 nM | – |
| CCN[C@]1(c2ccccc2)CC[C@]2(CC1)CN(CC(C)(C)C(N)=O)C(=O)N2 | 1 nM | – |
| COc1ccnc(NC(=O)CCN2C[C@]3(CC[C@](c4ccccc4)(N(C)C)CC3)N(CC3CCC3)C2=O)c1 | 2.6 nM | 51.5 nM |
| CN(C)C(=O)CCNC(=O)CCN1C[C@]2(CC[C@](c3ccccc3)(N(C)C)CC2)N(CC2CCC2)C1=O | 8.1 nM | 47.5 nM |

| SMILES | Ki (Nociceptin receptor) | Ki (Mu-type opioid receptor) |
| --- | --- | --- |
| CN(C)[C@]1(c2ccccc2)CC[C@]2(CC1)CN(CCC(=O)Nc1ccc(S(C)(=O)=O)nc1)C(=O)N2CC1CCC1 | 1.8 nM | – |
| COCCCN1C(=O)N(CCC(=O)NCCS(C)(=O)=O)C[C@]12CC[C@](c1ccccc1)(N(C)C)CC2 | 130 nM | 130 nM |
| COc1cncc(NC(=O)CCN2C[C@]3(CC[C@](c4ccccc4)(N(C)C)CC3)N(CC3CCC3)C2=O)n1 | 2.2 nM | – |
| CNC1(c2ccccc2)CCC2(CC1)CN(CC(C)(C)C(N)=O)C(=O)N2CC1CCC1 (configuration not stated) | 17.5 nM | – |
| COCCNC(=O)CCN1C[C@]2(CC[C@](c3ccccc3)(N(C)C)CC2)N(CC2(O)CCC2)C1=O | 16.5 nM | 58.5 nM |
| CN(C)[C@]1(c2ccccc2)CC[C@]2(CC1)CN(CCC(=O)NCC1(O)CCC1)C(=O)N2CC1CCC1 | – | 1.7 nM |
| CN(C)[C@]1(c2ccccc2)CC[C@]2(CC1)CN(CCC(=O)Nc1ccc(S(C)(=O)=O)cn1)C(=O)N2CC1CCC1 | 2.1 nM | – |
| CN(C)[C@]1(c2ccccc2)CC[C@]2(CC1)CN(CC(C)(C)C(=O)N1CCOCC1)C(=O)N2CC1(O)CCC1 | 7 nM | 670 nM |
| CN(C)[C@]1(c2ccccc2)CC[C@]2(CC1)CN(CCC(=O)Nc1cccnc1)C(=O)N2CC1(O)CCC1 | 4.2 nM | – |
| CN[C@]1(c2ccccc2)CC[C@]2(CC1)CN(CC(C)(C)C(N)=O)C(=O)N2CC1(O)CCC1 | 285 nM | – |
| COc1cc(NC(=O)CCN2C[C@]3(CC[C@](c4ccccc4)(N(C)C)CC3)N(CC3CCC3)C2=O)ccn1 | 2.6 nM | – |
| CN[C@]1(c2ccccc2)CC[C@]2(CC1)CN(CC(C)(C)C(=O)NCC(N)=O)C(=O)N2CC1CCC1 | 75.5 nM | – |
| COc1ccnc(NC(=O)CCN2C[C@]3(CC[C@](c4ccccc4)(N(C)C)CC3)N(CC3(O)CCC3)C2=O)n1 | 22.5 nM | – |
| COc1cnccc1NC(=O)CCN1C[C@]2(CC[C@](c3ccccc3)(N(C)C)CC2)N(CC2CCC2)C1=O | 1.2 nM | – |
| COCCCN1C(=O)N(CCC(=O)NC(C)(C)C(N)=O)C[C@]12CC[C@](c1ccccc1)(N(C)C)CC2 | – | 175 nM |
| CN(C)[C@]1(c2ccccc2)CC[C@]2(CC1)CN(CCC(N)=O)C(=O)N2CC1(O)CCC1 | 12.2 nM | – |
| CN(C)[C@]1(c2ccccc2)CC[C@]2(CC1)CN(CCC(=O)NCc1cnco1)C(=O)N2CC1CCC1 | – | 28 nM |
